The results in this text go back to patent publication US8431591B2, “R(−)-2-methoxy-11-hydroxyaporphine and derivatives thereof” (The McLean Hospital Corporation, priority 2007, dated 2013).

Chains of the proteins cited; added tags and fusions are not shown.
UniProt P61169, whole entry: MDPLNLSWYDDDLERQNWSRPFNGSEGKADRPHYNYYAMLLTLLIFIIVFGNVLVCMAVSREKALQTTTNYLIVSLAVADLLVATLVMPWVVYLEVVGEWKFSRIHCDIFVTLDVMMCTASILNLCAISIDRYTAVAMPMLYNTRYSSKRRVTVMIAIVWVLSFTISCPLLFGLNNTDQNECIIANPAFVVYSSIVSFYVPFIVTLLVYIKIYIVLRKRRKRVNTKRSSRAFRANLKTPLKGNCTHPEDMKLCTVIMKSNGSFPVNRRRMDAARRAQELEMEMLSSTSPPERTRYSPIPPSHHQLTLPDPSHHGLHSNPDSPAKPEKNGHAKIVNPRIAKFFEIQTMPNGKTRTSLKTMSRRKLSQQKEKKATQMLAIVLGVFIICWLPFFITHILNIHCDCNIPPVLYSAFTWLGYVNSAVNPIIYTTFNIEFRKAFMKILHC

The assay addresses dopamine D2 receptor (Rattus norvegicus, UniProt P61169). In words: Radioligand competition assay, affinity at rat D2 receptors ([3H]nemonapride). The conditions noted are these: radioligand [3H]nemonapride. Format: binding.

For `CN1CCc2cccc3c2[C@H]1Cc1ccc(O)c(O)c1-3` [Compound 1a], the affinity corresponds to a Ki of 1.9 ± 0.5 nM.
